The source of these data is patent publication US20230218663A1, “COMPOSITIONS AND METHODS FOR TREATING A SARS-COV-2 INFECTION” (priority 2020, published 2023).

In experiment [1] the target is T1, SARS-CoV-2 helicase (Severe acute respiratory syndrome coronavirus 2, UniProt P0DTD1). To be noted: read-out: IC50 ATPase activity; based on metal content.
Experiment [2] concerns the target T1, SARS-CoV-2 helicase. To be noted: read-out: IC50 DNA-unwinding activity; based on metal content.
In experiment [3] the target is T1, SARS-CoV-2 helicase. Briefly: Zinc supplementation assay. The format is biochemical. To be noted: up to 50 molar equivalents of zinc(II) added to bismuth bound helicase.

Read-outs that look alike come from different tables or passages of the source.

On to `CCP(CC)CC.[Au+].[Cl-]` [Au(PEt3)Cl, chloro(triethylphosphine)gold(I)], for which the IC50 stood at 0.23 ± 0.01 µM at SARS-CoV-2 helicase [1] and 0.34 ± 0.07 µM on SARS-CoV-2 helicase [2].

For `[Bi+3]` [Bi^3+], on SARS-CoV-2 helicase [3], the “ATPase activity restored by zinc(II)” value is reported as roughly 6% and the “duplex-unwinding activity restored by zinc(II)” value is roughly 13%.

The IC50 is the concentration that gives 50% inhibition.
